Screening data deposited in PubChem by ICCB-Longwood Screening Facility, Harvard Medical School.
GIV-Gai inh = GIV-Galpha-i interaction inhibition. P08753. Galpha-i3/FITC-GIV peptide fluorescence polarization, 90 min; active compounds read low; scaled: aluminum fluoride 0%, vehicle 100%. percent of control (FP), % (test concentration not listed). 210,000 compounds, 0.42% hits. AID 1224905;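 active = replicate mean at 85% of control or lower, very high polarization wells dropped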;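 also: lower values mean more displacement of the GIV peptide from Galpha-i3; wells of about 15 µL received 100 nL stock; the first replicate is given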
HCMV NEC inh = cytomegalovirus nuclear egress complex inhibition | inhibition, % (test concentration not listed) | HTRF UL50-UL53 interaction, normalized percent inhibition | 0.15% of 190,000 active; in the data active = inhibition above about 27%, passing the limit was not always enough
GIV Gai FP conf = confirmation of inhibitors of GIV binding to rat Galpha-i3 | FITC-GIV peptide binding to Galphai3, fluorescence polarization; active compounds read low | shares compounds with GIV-Gai inh | fluorescence polarization, mP at 100 µM | AID 1259350 | 38% of 580 active;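 active = inhibition score of 15 or more, meaning 100 minus mean polarization as percent of control over three replicates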;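 also: lower mP means peptide displaced from Galphai3 so more inhibition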
GIV Gai AS conf = confirmation of inhibitors of GIV binding to human Galpha-i3; 39% of 580 active; shares compounds with GIV-Gai inh; AID 1259351; AlphaScreen Galphai3-GIV binding, purified proteins, 90 min; active compounds read low; AlphaScreen counts at 100 µM;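 active = inhibition score at or above a set limit, where the score is 100 minus the three-replicate mean percent of control signal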
An asterisk follows results filed as active; x = not tested or not shown. In the library only some 0.46% were active in any assay of this set; here they are far more common.

1	CCOC(=O)[C@@H]1Nc2ccc(C(=O)O)cc2[C@@H]2C=CC[C@H]12
2	CCOC(=O)[C@@H]1Nc2ccc(Br)cc2[C@@H]2C=CC[C@H]12
3	CCCCN(C)c1ccc2nnc(CCc3nc(-c4ccccc4)no3)n2n1
4	CCN(CC)C(=O)Cn1cc(/C=C2/C(=O)N(C)c3ccccc32)c2ccccc21
5	CCc1cccc2c(/C=C3/C(=O)N(C)c4ccccc43)cn(CC(=O)NC3CCCC3)c12
6	CCOC(=O)C(Cc1ccc(O)cc1)NS(=O)(=O)c1ccc2c(c1)C(=O)c1ccccc1C2=O (stereo unspecified)
7	CCOC(=O)C(Cc1ccc(O)cc1)NC1=CC(=O)C(=O)c2ccccc21 (stereo unspecified)
8	Cc1nc(-c2cccs2)no1
9	CCOc1ccc(C2C3CN(CC)CC=C3C(C#N)=C(N)C2(C#N)C#N)cc1 (stereo unspecified)
10	CCCN1CCC2(CC1)C1CN(CCC)CC=C1C(C#N)=C(N)C2(C#N)C#N (stereo unspecified)
compound no. | 1 | 2 | 3 | 4 | 5 | 6 | 7 | 8 | 9 | 10
GIV-Gai inh | 63* | 125 | 101 | 104 | 80* | 101 | 82* | 106 | 125 | 88
HCMV NEC inh | x | -44 | x | x | x | x | x | -6 | x | -47
GIV Gai FP conf | 50* | x | x | x | 34* | x | 53* | x | x | 61
GIV Gai AS conf | 2184* | x | x | x | 42825 | x | 32471 | x | x | 50169

11	Cc1ccc(S(=O)(=O)N2CCCN(c3nc4ccccc4n4cccc34)CC2)cc1
12	O=C(C(NS(=O)(=O)c1cccs1)c1ccccc1)N1CCN(c2cccc(Cl)c2)CC1 (stereo unspecified)
13	CCn1c(=N)c(C(=O)OC)cc2c(=O)n3cc(C)ccc3nc21
14	Cc1[nH][nH]c(=O)c1C=Nc1ccc(O)c(C(=O)O)c1
15	Cc1cc(C=Nc2ccc(O)c(C(=O)O)c2)c(C)n1-c1ccc(N(C)C)cc1
16	O=C(NCCc1ccccc1)c1cc2ccccc2o1
17	O=C(Nc1cccc2ccccc12)N1CCC(n2c(=O)[nH]c3ccccc32)CC1
18	C=CCN1C(=O)/C(=C2/Sc3ccccc3N2CC)SC1=S
19	C=CCN1C(=O)/C(=C2/Sc3ccc(Cl)cc3N2CC)SC1=S
20	Clc1ccc(-c2csnn2)cc1
compound no. | 11 | 12 | 13 | 14 | 15 | 16 | 17 | 18 | 19 | 20
GIV-Gai inh | 98 | 107 | 103 | 88 | x | 107 | 108 | 77* | 111 | 104
HCMV NEC inh | -21 | x | -127 | 4 | -12 | -19 | -14 | x | x | 6
GIV Gai FP conf | x | x | x | 63 | x | x | x | 72 | x | x
GIV Gai AS conf | x | x | x | 6341* | x | x | x | 3469* | x | x

21	COCCn1c(=NC(=O)c2ccc3c(c2)OCCO3)sc2cc(NC(C)=O)ccc21
22	CCOCCn1c(=NC(=O)c2ccc3c(c2)OCCO3)sc2cc(OCC)ccc21
23	NC(=O)c1ccsc1NC(=O)C1COc2ccccc2O1 (stereo unspecified)
24	CC1=C(C(=O)N2CCCCC2)C(c2ccc(N(C)C)cc2)C2=C(CCCC2=O)N1 (stereo unspecified)
25	COc1ccc2c(c1)c(/C=C/c1nc3ccccc3c(=O)n1-c1cccc(C)c1)c(C)n2C
26	COc1ccc2c(c1)c(/C=C/c1nc3ccccc3c(=O)n1-c1ccccc1)c(C)n2C
27	O=C(/C=C/c1ccc(Cl)cc1)OCC(=O)c1ccccc1
28	COc1cccc(CNC(=O)c2c3c(nc4ccccc24)C(=O)N(C2CCCCC2)C3)c1
29	COc1ccc(CNC(=O)c2c3c(nc4ccccc24)C(=O)N(C2CCCCC2)C3)cc1
30	COc1ccc(Br)c(C(=O)Nn2c(-c3cccc(Cl)c3)nc3ccccc3c2=O)c1
compound no. | 21 | 22 | 23 | 24 | 25 | 26 | 27 | 28 | 29 | 30
GIV-Gai inh | 80* | 104 | x | 101 | 66* | 107 | x | 89 | 100 | 100
HCMV NEC inh | x | x | -4 | 5 | -10 | -3 | -21 | x | x | -20
GIV Gai FP conf | 80 | x | x | x | 72 | x | x | 81 | x | x
GIV Gai AS conf | 35824 | x | x | x | 43303 | x | x | 34982 | x | x

31	COc1ccc(C(=O)Oc2ccc(C=C3C(=O)NC(=O)NC3=O)cc2Cl)cc1
32	COc1cc(C=C2C(=O)NC(=O)NC2=O)ccc1OC(=O)c1cc(F)c(F)cc1Cl
33	CCC(=O)Nc1c(C(N)=O)oc2ccccc12
34	O=C(O)c1cc(NS(=O)(=O)c2cc(F)ccc2F)cnc1N1CCOCC1
35	O=C(O)c1cc(NS(=O)(=O)c2cc(F)ccc2F)ccc1N1CCN(c2ccc(F)cc2)CC1
36	CCC1(C)Cc2c(C#N)c(N)n(-c3ccccc3)c(=O)c2CO1 (stereo unspecified)
37	CC1(C)C=C2C(=NN(c3ccccc3)C(N)=C2C#N)CO1
38	Cc1cc(C(F)(F)F)c2c(N)c(C(=O)Nc3ccc(F)cc3)sc2n1
39	Nc1c(C(=O)N2CCCCC2)sc2nc(-c3cccs3)cc(C(F)(F)F)c12
40	Nc1c(C(=O)N2CCOCC2)sc2nc(-c3cccs3)cc(C(F)(F)F)c12
compound no. | 31 | 32 | 33 | 34 | 35 | 36 | 37 | 38 | 39 | 40
GIV-Gai inh | 76* | 101 | 101 | 57* | 105 | x | 83* | 61* | x | 108
HCMV NEC inh | 76* | -3 | -31 | -10 | -31 | -12 | -40 | -18 | -1 | x
GIV Gai FP conf | 60 | x | x | 33* | x | x | 66 | 64 | x | x
GIV Gai AS conf | 24807* | x | x | 29995 | x | x | 39806 | 59274 | x | x

41	COc1cccc(NC(=O)c2sc3nc4c(c(-c5ccc(C)o5)c3c2N)CCCC4)c1
42	Nc1c(C(=O)NC2CC2)sc2nc(-c3cccs3)cc(C(F)(F)F)c12
43	COc1cccc(NC(=O)c2sc3nc4c(c(-c5ccco5)c3c2N)CCC4)c1
44	COc1ccc(NC(=O)c2sc3nc(-c4cccs4)cc(C(F)(F)F)c3c2N)cc1
45	COc1ccc(NC(=O)c2sc3nc(C)cc(C(F)(F)F)c3c2N)cc1
46	O=C(C=C1SCCS1)C1CC1c1ccccc1 (stereo unspecified)
47	O=C(NC1C2CC3CC(C2)CC1C3)c1cccnc1Cl (stereo unspecified)
48	COc1ccc(C(=O)OCC(=O)NCc2ccccc2)cc1
49	COc1ccc(-c2c3c(nc4sc(C(=O)Nc5cccc(OC)c5)c(N)c24)CC(C)(C)CC3=O)cc1
50	COc1ccc(NC(=O)c2sc3nc4c(c(-c5ccc(OC)cc5)c3c2N)C(=O)CC(C)(C)C4)cc1
compound no. | 41 | 42 | 43 | 44 | 45 | 46 | 47 | 48 | 49 | 50
GIV-Gai inh | 115 | 45* | 85* | 75* | 125 | x | x | x | 104 | 70*
HCMV NEC inh | x | x | x | x | x | -10 | -37 | -18 | -26 | -40
GIV Gai FP conf | x | 64 | 65 | 68 | x | x | x | x | x | 81
GIV Gai AS conf | x | 53248 | 51091 | 53981 | x | x | x | x | x | 32279

51	CCc1c(C#N)c(N)nc2sc(C(=O)Nc3ccc(Br)cc3)c(N)c12
52	CCOc1ccc(-c2c(C#N)c(N)nc3sc(C(=O)Nc4ccc(Br)cc4)c(N)c23)cc1
53	CCOCCOC(=O)c1ccc2c(c1)N(Cc1ccccc1F)C(=O)c1ccccc1S2
54	N#CC1=C(SCC(=O)Nc2ccc(Br)cc2)NC(=O)CC1c1cccc2ccccc12 (stereo unspecified)
55	O=S(=O)(c1ccc(F)cc1)N1CCN(c2nc3ccccc3n3cccc23)CC1
56	CCOc1ccc(-c2nonc2NC(=O)COc2ccc(C(C)C)cc2)cc1C
57	Cc1ccc(C2c3cccn3CCN2S(=O)(=O)c2ccc3c(c2)OCCO3)cc1 (stereo unspecified)
58	O=C1/C(=C/c2ccc(Cl)cc2)C=C(c2ccccc2)N1c1ccccc1
59	O=C1/C(=C/c2ccc(Cl)cc2)C=C(c2ccccc2)N1c1ccc(Cl)cc1
60	Cc1ccc(C(=O)Nc2ccnn2C(C)C)cc1
61	O=C1/C(=C\c2cccnc2)SC(=S)N1C1CCS(=O)(=O)C1 (stereo unspecified)
compound no. | 51 | 52 | 53 | 54 | 55 | 56 | 57 | 58 | 59 | 60 | 61
GIV-Gai inh | x | 86 | 103 | 100 | 104 | 105 | 108 | 125 | 82* | x | 89
HCMV NEC inh | -19 | -16 | -7 | -4 | -30 | -12 | x | x | x | -24 | -32
GIV Gai FP conf | x | 64 | x | x | x | x | x | x | 103 | x | 73
GIV Gai AS conf | x | 51717 | x | x | x | x | x | x | 40363 | x | 36761

Looked up one by one from above (three):
14	Cc1[nH][nH]c(=O)c1C=Nc1ccc(O)c(C(=O)O)c1
45	COc1ccc(NC(=O)c2sc3nc(C)cc(C(F)(F)F)c3c2N)cc1
3	CCCCN(C)c1ccc2nnc(CCc3nc(-c4ccccc4)no3)n2n1
compound no. | 14 | 45 | 3
GIV-Gai inh | 88 | 125 | 101
HCMV NEC inh | 4 | x | x
GIV Gai FP conf | 63 | x | x
GIV Gai AS conf | 6341* | x | x
